The assay has as its target C_(γ1-3) chain (VH-deleted human IgG1 heavy chain) (human). Description: ELISA. For orientation: An ELISA detects its analyte on a solid surface through an enzyme-linked reagent.

ψLC (2C281 ψVκ-Cκ) (antibody): the other is 40%.

(Values after article PMC11096469.)
